# Molecular target: T1, CDK4 (Homo sapiens, UniProt P11802)
# The chains behind the UniProt entries cited, without tags or fusion partners. Where a name states a change or a piece, a line headed by the entry shows the natural chain unless it says otherwise.
# UniProt P11802: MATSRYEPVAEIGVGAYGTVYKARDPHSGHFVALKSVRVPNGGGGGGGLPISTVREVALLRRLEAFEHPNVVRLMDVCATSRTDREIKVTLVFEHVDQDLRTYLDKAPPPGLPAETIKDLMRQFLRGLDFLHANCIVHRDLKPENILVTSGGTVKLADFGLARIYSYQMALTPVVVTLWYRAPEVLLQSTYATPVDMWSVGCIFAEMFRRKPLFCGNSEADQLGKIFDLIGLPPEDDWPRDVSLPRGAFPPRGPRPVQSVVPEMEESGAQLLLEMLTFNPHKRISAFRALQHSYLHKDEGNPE
# T1 construct: Dose- and Time-dependent Degradation of CDK6 and CDK4 in U251 Cells; endogenous in cells; host or cells: U-251 MG (U251) glioblastoma cells
# Assay: Western blot of CDK4 degradation in U251 cells transfected with DNA-PROTACs
# Format: cell-based
# Procedure: U-251 MG Glioblastoma Cell Line was grown in Dulbecco's Modified Eagles Medium (DMEM) containing 10% heat inactivated fetal bovine serum (FBS), streptomycin (5 μg/mL) and 5 U/mL penicillin 95 U/mL). All cell lines were maintained, and cell culture experiments were carried out in humidified incubators at 37° C. and 5% CO2 supplementation.
# One day prior to DNA-PROTACs transfection, cells were propagated into 6 cm cell culture dishes containing appropriate complete growth medium. Prior to transfection, complete medium was replaced with transfection medium (5% FBS, no Penstrep). DNA-PROTACs transfection was performed using lipofectamine 3000 reagent according to the protocols provided by the manufacture. All transfections were carried out in 6-cm dishes with 3 mL of media and concentrations of DNA-PROTACs were calculated according to this volume (3 mL). Briefly, for 50 nM concentration, 5 μL from a 30 µM DNA-PROTACs stock and 12 μL p3000 reagent was added to a tube containing 125 μL of OPTIM-MEM and 8 μL of Lipofectamine 3000 reagent was added to a separate tube containing 125 μL of OPTIM-MEM. Two tubes were incubated for 5 minutes at room temperature and DNA-PROTACs containing OPTI-MEM was then slowly added to the second tube with lipo3000. The solution in the tube was mixed well by pipetting up and down several times. After incubating for 15-20 minutes at room temperature, 250 μL of DNA-PROTACs-lipofectamine complex was added drop wise onto cells containing the transfection medium. Transfection medium was mixed well before transferring the plate into the incubator. After appropriate time, cells were either harvested or replaced with fresh medium and incubated for desired time point prior to harvesting. For proteasome inhibition assay, 5 μM of MG-132 was incubated with cells for 2 h prior to transfection of DNA-PROTACs. […]
# Protein concentration in all the cell lysates were measured by BCA protein assay kit and equal amounts from each lysate were mixed with 4×loading dye and boiled for 5 minutes followed by 2 minutes centrifugation prior to loading into SDS-PAGE gel. […]
substance,measurement,setting,value
"DNA-PROTAC-V02: DNA duplex of E3-i (pomalidomide) strand SEQ ID NO 3 and POI-i (palbociclib) strand SEQ ID NO 4 (chain 1 ACTCCATCTANTTCTACGCCA; chain 2 TGGCGTAGAANTAGATGGAGT; pomalidomide and palbociclib conjugated; modified_base 1 OTHER; Nucleotide with phosphorothioate linkage; modified_base 2 OTHER; modified_base 3 OTHER; misc_difference 11 E3 ligase attached to 3-Dimethoxytrityloxy-2-(3-(fluorenylmethoxycarbonylamino)propanamido)propyl-1-O-(2-cyanoethyl)-(N,N-diisopropyl)-phosphoramidite modified adenosine, cytidine, thymi; m)",time for which CDK4 degradation was sustained,"50 nM, time course",up to 48 hours
same,treatment time after which CDK4 degradation commenced,"50 nM, time course",48 h
same,concentration at which reduction in CDK4 protein levels is initiated,dose series,40 nM
